In patent US7795495B2, “Transgenic mice for screening for inhibitors of protein aggregation and methods for making and using them” (The Regents of the University of California, priority 2000, dated 2010):

Key:
NAC = biological target: T1, NAC (Homo sapiens, UniProt P37840); experiment: Co-incubation of NAC with β-synuclein under high temperature conditions (NAC aggregation); format: biochemical; details: 10 µM NAC with 0, 1, 10 µM β-synuclein, 20 hours, data not shown
T1 construct: 35 amino acid amyloidogenic molecule non-amyloid component (NAC)
Protocol: Applicants confirmed this through the generation of mutants of β-synuclein having added segments of the NAC domain. The two mutants of β-synuclein were created by PCR-based site-directed mutagenesis (FIG. 1), inserting amino acids 72-83 (designated δ1)(Seq ID #1) and 63-72 (designated δ2)(Seq ID #2) of NAC and NAC N-terminal, respectively, into β-synuclein. The proteins, β-synuclein, β-synuclein δ1, β-synuclein δ2, and α-synuclein, were incubated under high temperature conditions (65° C.), according to the previously established protocol of Hashimoto et al. (Brain Res. 799:301-306, 1998), which is herein incorporated by reference, showing that the aggregation of α-synuclein is inducible under high temperature conditions. Each of the protein samples (20 µM) was incubated under pH 6.9, 65° C. conditions for 0, 8, and 20 hours. The incubated samples were run over SDS-PAGE and the resulting protein bands visualized by Coomassie/brilliant blue staining (FIG. 2).
As established in Example 1, the NAC domain of α-synuclein forms β-pleated protein structures and is present in the senile plaques of Alzheimer's disease where it may be involved in Alzheimer's disease amyloidogenesis. It can therefore be postulated that the inhibition of the aggregation of NAC might block the initial step in amyloid formation. […]

α-synuclein = α-synuclein (Homo sapiens, UniProt P37840); experiment: α-synuclein aggregation under high temperature conditions, immunoblotting analysis; format: biochemical; details: pH 6.9, 65 °C, 20 hours
Protocol: Briefly, 10 µM α-synuclein was incubated either alone, or in the presence of either 10 µM β-synuclein or 10 µM IgG under pH 6.9 buffer conditions at 65° C. for 0, 6, 12, and 20 hours. In a simultaneous experiment, 10 µM α-synuclein was incubated with various concentrations (0, 2.5, 10, 40, and 160 µM) of β-synuclein under the same pH and temperature conditions for 20 hours. Quantification of immunoblotting analysis showing the ratio of aggregates versus monomer can be seen in FIG. 4.
Because synuclein forms both homo- and hetero-dimers, it is likely that binding might occur in the vicinity of the N-terminus. To characterize the functional domain of β-synuclein responsible for suppression of α-synuclein aggregation, peptides corresponding to amino acids 1-15 (Seq ID #7), 16-27 (Seq ID #8), 28-38 (Seq ID #9), 39-50 (Seq ID #10), and 51-61 (Seq ID #11) of the N-terminal region of β-synuclein were synthesized. Varying concentration of the peptides (1, 10, and 100 µM) were co-incubated with 10 µM α-synuclein under high temperature conditions for 20 hours.

## β-synuclein
NAC
  inhibition of the aggregation of NAC: inhibits the aggregation of NAC in a concentration-dependent manner
α-synuclein; 10 µM α-synuclein with 0, 2.5, 10, 40, 160 µM β-synuclein
  inhibition of α-synuclein aggregation (ratio of aggregates versus monomer): inhibits α-synuclein aggregation in a dose dependent manner
α-synuclein; relative to 10 µM α-synuclein
  concentrations of β-synuclein shown to be effective against α-synuclein aggregation: more than equi-molar concentrations
